{"source": "the pKa sets of Baltruschat and Czodrowski (2020)", "details": "experimental values, compiled", "note": "Some results for these compounds are left out of this collection, so the calls shown say nothing about other tests.", "data": [{"smiles": "CN(CCO)CCCl", "values": [{"measurement": "pKa", "result": 7.5}]}, {"smiles": "CC(C)N(CCCl)CCCl", "values": [{"measurement": "pKa", "result": 7}]}, {"smiles": "CCCCN(CCCl)CCCl", "values": [{"measurement": "pKa", "result": 6.63}]}, {"smiles": "CCCN(CCCl)CCCl", "values": [{"measurement": "pKa", "result": 6.7}]}]}
